{"source": "ChEMBL document CHEMBL5131537", "about": "(J Med Chem, 2022)", "biological_target": "Human immunodeficiency virus type 1 reverse transcriptase (Human immunodeficiency virus 1, UniProt Q72547)", "data": [{"smiles": "Cc1cc(C#N)cc(C)c1Oc1nc(Nc2ccc(C#N)cc2)nc(N)c1Br", "note": "[ETRAVIRINE]", "values": [{"measurement": "IC50", "value": 13, "unit": "nM"}]}]}
